# Assay results: patent publication US20060127310A1, “Amplification of biotin-mediated targeting” (priority 2002, published 2006)
# What was measured:
# RENCA = assay: Uptake of Rhodamine-HPMA polymers into tumour cell lines; type: cell-based; set-up: key: −: Uptake was determined on a relative scale; +/−: Uptake was determined on a relative scale; +: Uptake was determined on a relative scale; ++: Uptake was determined on a relative scale; +++: Uptake was determined on a relative scale; details: Balb/C, Renal cell, 5 hours at 37° C.
# Description: (§1) Cells from various tumour cell lines were allowed to grow for 2 days on glass slides incubated in appropriate media at 37° C. in 5% CO2. […] Cells were incubated for a further 5 hours at 37° C. in 5% CO2. At this time the media was removed and uptake into the cells was assessed by fluorescent microscopy of internalization of the rhodamine fluorophore. Uptake was determined on a relative scale.
# BW5147 = assay: as above; type: cell-based; set-up: key: −: Uptake was determined on a relative scale; +/−: Uptake was determined on a relative scale; +: Uptake was determined on a relative scale; ++: Uptake was determined on a relative scale; +++: Uptake was determined on a relative scale; details: BW5147, AKR/J, Lymphoma; 5 hours at 37° C.
# Description: as §1
# ID8 = assay: as above; type: cell-based; set-up: key: −: Uptake was determined on a relative scale; +/−: Uptake was determined on a relative scale; +: Uptake was determined on a relative scale; ++: Uptake was determined on a relative scale; +++: Uptake was determined on a relative scale; details: ID8, C57/BI, Ovarian; 5 hours at 37° C.
# Description: as §1
# M109 = assay: as above; type: cell-based; set-up: key: −: Uptake was determined on a relative scale; +/−: Uptake was determined on a relative scale; +: Uptake was determined on a relative scale; ++: Uptake was determined on a relative scale; +++: Uptake was determined on a relative scale; details: M109, Balb/C, Lung; 5 hours at 37° C.
# Description: as §1
# L1210FR = assay: as above; type: cell-based; set-up: key: −: Uptake was determined on a relative scale; +/−: Uptake was determined on a relative scale; +: Uptake was determined on a relative scale; ++: Uptake was determined on a relative scale; +++: Uptake was determined on a relative scale; details: DBA/2, Leukemia, 5 hours at 37° C.
# Description: as §1
# LL-2 = assay: as above; type: cell-based; set-up: key: −: Uptake was determined on a relative scale; +/−: Uptake was determined on a relative scale; +: Uptake was determined on a relative scale; ++: Uptake was determined on a relative scale; +++: Uptake was determined on a relative scale; details: LL-2, C57/BI, Lung; 5 hours at 37° C.
# Description: as §1
# 4T1 = assay: as above; type: cell-based; set-up: key: −: Uptake was determined on a relative scale; +/−: Uptake was determined on a relative scale; +: Uptake was determined on a relative scale; ++: Uptake was determined on a relative scale; +++: Uptake was determined on a relative scale; details: 4T1, Balb/C, Breast; 5 hours at 37° C.
# Description: as §1
# L1210 = assay: as above; type: cell-based; set-up: key: −: Uptake was determined on a relative scale; +/−: Uptake was determined on a relative scale; +: Uptake was determined on a relative scale; ++: Uptake was determined on a relative scale; +++: Uptake was determined on a relative scale; details: L1210, DBA/2, Leukemia; 5 hours at 37° C.
# Description: as §1
# JC = assay: as above; type: cell-based; set-up: key: −: Uptake was determined on a relative scale; +/−: Uptake was determined on a relative scale; +: Uptake was determined on a relative scale; ++: Uptake was determined on a relative scale; +++: Uptake was determined on a relative scale; details: Balb/C, Breast, 5 hours at 37° C.
# Description: as §1
# MMT060562 = assay: as above; type: cell-based; set-up: key: −: Uptake was determined on a relative scale; +/−: Uptake was determined on a relative scale; +: Uptake was determined on a relative scale; ++: Uptake was determined on a relative scale; +++: Uptake was determined on a relative scale; details: MMT060562, Balb/C, Breast; 5 hours at 37° C.
# Description: as §1
# P815 = assay: as above; type: cell-based; set-up: key: −: Uptake was determined on a relative scale; +/−: Uptake was determined on a relative scale; +: Uptake was determined on a relative scale; ++: Uptake was determined on a relative scale; +++: Uptake was determined on a relative scale; details: P815, DBA/2, Mastocytoma; 5 hours at 37° C.
# Description: as §1
# Ov 2008 = assay: as above; type: cell-based; set-up: key: −: Uptake was determined on a relative scale; +/−: Uptake was determined on a relative scale; +: Uptake was determined on a relative scale; ++: Uptake was determined on a relative scale; +++: Uptake was determined on a relative scale; details: Ov 2008, Balb/C-Nu, Ovarian; 5 hours at 37° C.
# Description: as §1
# Colo-26 = assay: as above; type: cell-based; set-up: key: −: Uptake was determined on a relative scale; +/−: Uptake was determined on a relative scale; +: Uptake was determined on a relative scale; ++: Uptake was determined on a relative scale; +++: Uptake was determined on a relative scale; details: Colo-26, Balb/C, Colon Carcin; 5 hours at 37° C.
# Description: as §1
# B16 = assay: as above; type: cell-based; set-up: key: −: Uptake was determined on a relative scale; +/−: Uptake was determined on a relative scale; +: Uptake was determined on a relative scale; ++: Uptake was determined on a relative scale; +++: Uptake was determined on a relative scale; details: B16, C57/BI, Melanoma; 5 hours at 37° C.
# Description: as §1
# HCT-116 = assay: as above; type: cell-based; set-up: key: −: Uptake was determined on a relative scale; +/−: Uptake was determined on a relative scale; +: Uptake was determined on a relative scale; ++: Uptake was determined on a relative scale; +++: Uptake was determined on a relative scale; details: HCT-116, Balb/C-Nu, Colon Carcin; 5 hours at 37° C.
# Description: as §1
# Ovcar = assay: as above; type: cell-based; set-up: key: −: Uptake was determined on a relative scale; +/−: Uptake was determined on a relative scale; +: Uptake was determined on a relative scale; ++: Uptake was determined on a relative scale; +++: Uptake was determined on a relative scale; details: Ovarian, 5 hours at 37° C.
# Description: as §1
# P815 tumour cells = details: mice bearing P815 tumour; 5 mg/kg Rhodamine conjugated to HPMA intraperitoneally; six hours after injection; FIG. 1
# Description: For tumour accumulation studies, various strains of mice bearing a variety of tumours were injected intraperitoneally with 5 mg/kg Rhodamine conjugated to the HPMA polymers. Six hours after injection, the mice were sacrificed, their tumours removed and cryo-embedded before cryostatic sectioning. The level of accumulation of the Rhodamine-HPMA was determined by fluorescent microscopy using a Zeiss microscope equiped with Axioplan software. […] Blue staining is BisBenzamide staining of cell nuclei.
smiles,measurement,setting,value
"O=C(O)CCCC[C@@H]1SC[C@@H]2NC(=O)N[C@@H]21 [Biotin, biotin-substituted-Rhodamine-HPMA]","Uptake into the cells (internalization of the rhodamine fluorophore, fluorescent microscopy), relative scale",RENCA,+++
same,"Uptake into the cells (internalization of the rhodamine fluorophore, fluorescent microscopy), relative scale",BW5147,+/−
same,"Uptake into the cells (internalization of the rhodamine fluorophore, fluorescent microscopy), relative scale",ID8,++
same,"Uptake into the cells (internalization of the rhodamine fluorophore, fluorescent microscopy), relative scale",M109,+++
same,"Uptake into the cells (internalization of the rhodamine fluorophore, fluorescent microscopy), relative scale",L1210FR,+++
same,"Uptake into the cells (internalization of the rhodamine fluorophore, fluorescent microscopy), relative scale",LL-2,−
same,"Uptake into the cells (internalization of the rhodamine fluorophore, fluorescent microscopy), relative scale",4T1,+++
same,"Uptake into the cells (internalization of the rhodamine fluorophore, fluorescent microscopy), relative scale",L1210,−
same,"Uptake into the cells (internalization of the rhodamine fluorophore, fluorescent microscopy), relative scale",JC,+++
same,"Uptake into the cells (internalization of the rhodamine fluorophore, fluorescent microscopy), relative scale",MMT060562,+++
same,"Uptake into the cells (internalization of the rhodamine fluorophore, fluorescent microscopy), relative scale",P815,+++
same,"Uptake into the cells (internalization of the rhodamine fluorophore, fluorescent microscopy), relative scale",Ov 2008,++
same,"Uptake into the cells (internalization of the rhodamine fluorophore, fluorescent microscopy), relative scale",Colo-26,+++
same,"Uptake into the cells (internalization of the rhodamine fluorophore, fluorescent microscopy), relative scale",B16,−
same,"Uptake into the cells (internalization of the rhodamine fluorophore, fluorescent microscopy), relative scale",HCT-116,−
same,"Uptake into the cells (internalization of the rhodamine fluorophore, fluorescent microscopy), relative scale",Ovcar,++
same,Level of accumulation / polymer uptake by P815 tumour cells (fluorescent microscopy of cryostat sections),P815 tumour cells,enhanced by biotin derivatization
